Test system: P-glycoprotein (Pgp)
Experiment: Pgp-induction assay, rhodamine123 (Rh123) cell exclusion method in LS180 cells
Type: cell-based
Conditions: 1b, 1g versus garcinol (1a), 2b versus isogarcinol (2a)
Procedure: All synthesized compounds were screened for their ability to induce Pgp by using rhodamine123 (Rh123) cell exclusion method. In this method, the Pgp function was evaluated in terms of rhodamine 123 (Rh123) accumulations and efflux. Briefly, the protocol used is as follows: Colorectal LS180 cells Colorectal LS-180 cells [obtained from ECACC (European Collection of Cell Cultures) catalogue number: 87021202; passage number 52] were seeded at a density of 2×10^4 per well of 96 well plate and were allowed to grow for next 24 h. Cells were further incubated with the test compounds, and were diluted to a final concentration of 100 nM and rifampicin (standard) to a final concentration of 10 μM in complete media for 48 h. The final concentration of DMSO was kept at 0.1%. Drugs were removed and cells were incubated with HANKS buffer for 40 minutes before further incubation with HANKS buffer (containing 10 μM of Rh123 as a Pgp substrate) for 90 minutes. […] A total of 100 μl of lysate was used for reading fluorescence of Rh123 at 485 nm/529 nm. Samples were normalized by dividing fluorescence of each sample with total protein present in the lysate. […] EC50 was determined by plotting fluorescence of Rh123 against concentration of compound.

C=C(C)C(CC=C(C)C)CC12CC(CC=C(C)C)C(C)(C)C(CC=C(C)C)(C(=O)C(C(=O)c3ccc(OCc4ccccc4[N+](=O)[O-])c(OCc4ccccc4[N+](=O)[O-])c3)=C1O)C2=O (stereo not shown) [Compound 1g, 3′,4′-di-[O-(2″-nitro-benzyl)]-garcinol]
Pgp induction activity compared to parent natural product: better
